According to article PMC2805098:

Substrate: Nc1nc2c(c(=O)[nH]1)N1CN(c3ccc(C(=O)N[C@@H](CCC(=O)O)C(=O)O)cc3)C[C@H]1CN2
Test: NADH-CH2-H4folate oxidoreductase assay, steady-state
Type: biochemical, Escherichia coli
Conditions: other: 1000 μM NADH, fit to eq 6, anaerobic, 25 °C, pH 7.2

B1: Phe223Leu MTHFR (Escherichia coli K-12; F223L) (protein)
chain: MSFFHASQRDALNQSLAEVQGQINVSFEFFPPRTSEMEQTLWNSIDRLSSLKPKFVSVTYGANSGERDRTHSIIKGIKDRTGLEAAPHLTCIDATPDELRTIARDYWNNGIRHIVALRGDLPPGSGKPEMYASDLVTLLKEVADFDISVAAYPEVHPEAKSAQADLLNLKRKVDAGANRAITQFFFDVESYLRFRDRCVSAGIDVEIIPGILPVSNFKQAKKLADMTNVRIPAWMAQMFDGLDDDAETRKLVGANIAMDMVKILSREGVKDFHFYTLNRAEMSYAICHTLGVRPGL
With B1 the kcat was 14 ± 2 s⁻¹.
